Laboratory results from PMC3849192, “A Simple Method for Assessing Free Brain/Free Plasma Ratios Using an In Vitro Model of the Blood Brain Barrier” (PLoS ONE, 2013).

System: in vitro BBB model (co-culture of bovine brain capillary endothelial cells and rat glial cells)
Experiment: In vitro BBB co-culture model, Cu,br/Cu,pl ratio

Cc1nc2n(c(=O)c1CCN1CCC(c3noc4cc(F)ccc34)CC1)CCCC2 [Risperidone] was tested, and the “In vitro Cu,br/Cu,pl Mean 1 h” value (2 µM in luminal compartment, abluminal/luminal concentration at 1 h) was 0.56 and the “In vitro Cu,br/Cu,pl Mean steady-state” value (steady-state ratio computed from 1 h data with the blue-norna steady-state calculator) was 0.60.
